# Data as given in patent US20260008801A1, “BIO-BASED SURFACTANTS DERIVED FROM CARBOHYDRATES” (COÖPERATIE KONINKLIJKE COSUN U.A., priority 2022, published 2026).
# Legend:
# [1] = Solubility in water (excess of compound in 4 ml demi water); details: Table E7, commercially available surfactants
# [2] = Surface tension measurements, Wilhelmy plate (surface tension, CMC); assay type: physicochemical; details: Table E7
# Description: Surface tension measurements were performed with a Biolin Scientific Sigma701 automatic tension meter equipped with a Wilhelmy plate made of platinum (±0.5 mN/m). At room temperature and a pH of 7, different concentrations of aqueous solutions (0.01%-max. 12.5%; 4 ml) of synthesized compounds and of commercially available surfactants (SLES, which is sodium laureth sulfate, and SCG, which is sodium cocoyl glutamate) were measured continuously (30 sec) (‘continuous Wilhelmy plate’ method) using small plastic petri dishes. The number of experimental points is related to the compound's/surfactant's solubility and available quantity. All compound/surfactant solutions were allowed to stand 12 h before being measured. The platinum plate was thoroughly cleaned with demi water and flame-dried before each measurement. The CMC of each compound/surfactant was determined at the minimum of a breakpoint of a conventional plot of surface tension versus compound/surfactant concentration. DCMC was obtained by acquiring the surface tension at the CMC. The pC20 value was determined by taking the minus log of the concentration compound/surfactant at a surface tension of 52 mN/m.
# [3] = Foaming abilities, 1% compound solutions shaken by hand; assay type: physicochemical; design: key: −: no foam formation; +: low foam formation; ++: moderate foam formation; +++: strong foam formation; details: Table E7
# Description: Foaming abilities were evaluated at room temperature by shaking 1% compound solutions (2 ml) of pH 3, 7, and 12 by hand for 10 s. The pH of each solution was assessed with a pH meter at room temperature. […] The foam heights at the initial time were compared to one another after which the foaming abilities were classified according to no foam formation (−), low foam formation (+), moderate foam formation (++), and strong foam formation (+++).
substance,measurement,setting,value
"sodium cocoyl glutamate [SCG, reference compound]",SOLUBILITY (H2O),[1],Yes
same,SURFACE TENSION,[2],36.6 mN/m
same,FOAM,[3],++
